Earlier results in patent US11578100B2, “Cyclic peptides, cyclic peptide conjugates and methods of use thereof” (Florida Atlantic University Board of Trustees, priority 2018, dated 2023).

Amino acid sequences for entries named in this document (tags omitted).
UniProt P35372, whole entry: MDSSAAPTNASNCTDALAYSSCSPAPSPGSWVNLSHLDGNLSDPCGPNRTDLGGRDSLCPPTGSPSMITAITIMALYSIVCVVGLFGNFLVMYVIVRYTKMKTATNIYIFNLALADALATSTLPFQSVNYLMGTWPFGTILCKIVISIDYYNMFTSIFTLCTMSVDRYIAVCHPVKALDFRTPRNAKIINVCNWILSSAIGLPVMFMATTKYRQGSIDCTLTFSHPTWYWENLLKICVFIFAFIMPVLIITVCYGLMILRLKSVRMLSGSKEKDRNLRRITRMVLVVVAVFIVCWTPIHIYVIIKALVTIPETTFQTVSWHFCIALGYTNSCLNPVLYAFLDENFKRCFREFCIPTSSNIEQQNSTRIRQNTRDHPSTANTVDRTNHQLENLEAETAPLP

Target: T1, μ opioid receptor (MOR) (Homo sapiens, UniProt P35372)
T1 construct: expressed in transfected cells; host or cells: CHO cells
Details: Janecka et al. 2003; read-out: Kd opioid receptor μ, literature data (parenthesis) (converted); cited from earlier work

CC(C)C[C@@H](NC(=O)[C@H](Cc1ccccc1)NC(=O)CNC(=O)[C@@H](C)NC(=O)[C@@H](N)Cc1ccc(O)cc1)C(=O)O [DADLE, [D-Ala^2, D-Leu^5] enkephalin, reference compound]
Kd: 11.4 nM
